# Reference: PubChem BioAssay AID493160 (Sanford-Burnham Center for Chemical Genomics, 2011)
# Chains of the proteins cited; added tags and fusions are not shown. Lines headed by an entry give the natural chain unless they say otherwise; changes in a name come on top.
# UniProt Q2TB90: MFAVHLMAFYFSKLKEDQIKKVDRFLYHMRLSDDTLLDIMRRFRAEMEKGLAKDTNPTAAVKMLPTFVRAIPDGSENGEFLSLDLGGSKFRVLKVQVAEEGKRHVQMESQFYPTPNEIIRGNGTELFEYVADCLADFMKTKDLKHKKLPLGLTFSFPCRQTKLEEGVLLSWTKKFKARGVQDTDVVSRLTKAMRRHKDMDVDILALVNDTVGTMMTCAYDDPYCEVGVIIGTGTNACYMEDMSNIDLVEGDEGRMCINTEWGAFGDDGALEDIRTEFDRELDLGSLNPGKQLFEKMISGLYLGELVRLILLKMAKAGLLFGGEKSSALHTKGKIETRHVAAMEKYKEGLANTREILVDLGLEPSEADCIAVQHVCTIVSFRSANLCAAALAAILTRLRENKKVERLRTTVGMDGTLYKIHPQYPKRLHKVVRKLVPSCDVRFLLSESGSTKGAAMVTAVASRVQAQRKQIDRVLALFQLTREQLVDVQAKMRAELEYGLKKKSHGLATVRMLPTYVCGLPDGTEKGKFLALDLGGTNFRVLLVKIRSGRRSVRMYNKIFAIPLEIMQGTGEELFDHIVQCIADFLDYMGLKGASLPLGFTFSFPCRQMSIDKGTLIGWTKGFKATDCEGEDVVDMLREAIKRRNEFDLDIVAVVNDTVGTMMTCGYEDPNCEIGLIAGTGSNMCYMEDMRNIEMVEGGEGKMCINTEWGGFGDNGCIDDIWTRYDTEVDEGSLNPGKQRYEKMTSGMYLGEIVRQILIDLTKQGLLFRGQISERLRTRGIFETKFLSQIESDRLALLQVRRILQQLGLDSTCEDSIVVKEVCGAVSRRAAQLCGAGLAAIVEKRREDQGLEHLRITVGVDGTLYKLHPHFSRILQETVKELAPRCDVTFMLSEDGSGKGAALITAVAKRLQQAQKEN
# The list shows a part of the results, in another mix than the full data. Calls of active or inactive are those of the source.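 The calls were made as follows: active = inhibition above about 35% when tested at 20 µM (limit read from the data); inactive = the rest.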
# Molecular target: Hexokinase HKDC1 (Homo sapiens) (UniProt Q2TB90)
# Assay: blockers of human HKDC1 enzyme activity – biochemical, fluorescence, uHTS, primary screen (AID 493160);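 also: plate controls were DMSO wells with enzyme for no effect and DMSO wells lacking enzyme for full effect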
# Details: recombinant HKDC1, G6PDH/diaphorase resazurin coupled fluorescence; at 20 µM; hits give high values
row,Structure (SMILES),inhibition
1,O=C(OC1CN2CCC1CC2)c1ccccc1 (centres undefined),inactive: 7.77%
2,CCC(=O)N1C2C3N(C(=O)CC)C1C1N(C(=O)CC)C(C(N1C(=O)CC)N3C(=O)CC)N2C(=O)CC,inactive: 3.49%
3,COC(=O)c1cc2c(s1)N=C(c1ccccc1)N(C)P2(=O)N1CCOCC1 (centres undefined),inactive: 0.03%
4,CC(=O)NC(SC(=S)N(CC(C)C)CC(C)C)C(Cl)(Cl)Cl (centres undefined),inactive: -15.8%
5,Cc1ccc(OP(=O)(Nc2ccccn2)Oc2ccc(C)cc2)cc1,inactive: -7.04%
6,CC(NC(=O)COC(=O)C(O)(c1ccccc1)c1ccccc1)c1ccccc1 (centres undefined),inactive: 5.48%
7,Cc1ccccc1OP(=O)(Nc1ccccn1)Oc1ccccc1C,inactive: -0.09%
8,O=c1c2cc([N+](=O)[O-])ccc2[nH]c2c([N+](=O)[O-])cc([N+](=O)[O-])cc12,inactive: 26.6%
9,CN(C)C(=O)Oc1noc2ccccc12,inactive: -1.75%
10,O=P(Nc1ccccn1)(c1ccc(Br)cc1)c1ccc(Br)cc1,inactive: 7.22%
11,CN(C)C1(CNC(=O)c2ccc(Cl)c(S(N)(=O)=O)c2)CCCCC1,inactive: 2.11%
12,COc1ccc(N)c([N+](=O)[O-])c1[N+](=O)[O-],inactive: 4.37%
13,O=P(Nc1nc2ccccc2s1)(c1ccccc1)c1ccccc1,inactive: -2.77%
14,C[C@H]1OP(=O)(Oc2ccccc2)[C@H](O)[C@H](O)[C@H]1N=[N+]=[N-] (some centres undefined),inactive: -0.58%
15,O=[As](O)(c1ccccc1)c1ccc(O)cc1,inactive: 20.4%
16,O=[N+]([O-])c1ccc(O)c(/C=N/Nc2ccc([N+](=O)[O-])cc2[N+](=O)[O-])c1,inactive: 7.12%
17,CC(=O)NC(SC(=S)N(C)C)C(Cl)(Cl)Cl (centres undefined),inactive: 7.5%
18,O=[N+]([O-])c1ncn(CCn2cnc([N+](=O)[O-])n2)n1,inactive: 2.59%
19,O=C(OC1CN2CCC1CC2)c1cccc(Cl)c1 (centres undefined),inactive: -8.61%
20,C(Cc1nn[nH]n1)Cc1nn[nH]n1,inactive: -12.2%
21,Nc1ccc([As](=O)(O)c2ccc([N+](=O)[O-])cc2)cc1,inactive: -6.56%
22,CC(C)C(=O)NC(Sc1ccccc1)C(Cl)(Cl)Cl (centres undefined),inactive: -6.74%

row,Structure (SMILES),inhibition
1,O=P(Nc1nccs1)(c1ccccc1)c1ccccc1,inactive: -1.75%
2,c1nnnn1CCn1cnnn1,inactive: 3.28%
3,COc1ccc(C2=NCC(CBr)S2)cc1 (centres undefined),inactive: 2.61%
4,Cc1ccc(NP(=O)(Oc2ccccc2)Oc2ccccc2)nc1,inactive: -3.88%
5,CCc1nc2c(n1)c1c(non1O)c1c2no[n+]1[O-],inactive: 19.9%
6,O=[N+]([O-])c1cc([N+](=O)[O-])c(CCNc2ccccc2)c([N+](=O)[O-])c1,inactive: 14.1%
7,O=[N+]([O-])c1cccc2n[nH]nc12,inactive: -6.98%
8,CC(=O)N1C2C3N(C(C)=O)C1C1N(C(C)=O)C(C(N1C(C)=O)N3C(C)=O)N2C(C)=O,inactive: -9.6%
9,CCN(/C(=N/P(=O)(N1CCOCC1)N1CCOCC1)N1CCOCC1)c1ccc(OC)cc1,inactive: -6.85%
10,Nc1ccc([As](=O)(O)c2ccc(N)cc2)cc1,inactive: -2.3%
11,C[N+]1=C2C=CC=CC=C2SC12C([N+](=O)[O-])=CC([N+](=O)[O-])=C[C-]2[N+](=O)[O-] (centres undefined),inactive: 20.4%
12,CC1CCN(C(=O)Oc2c(Cl)cc(Cl)c3cccnc23)CC1,inactive: -0.26%
13,CC(C)=N/N=C(\N)N[N+](=O)[O-],inactive: 8.64%
14,CN(C)C(=O)OCCc1n(C)cc[n+]1C,inactive: -14.2%
15,O=P1(N(CCCl)CCCl)OCCCS1 (centres undefined),inactive: -2.49%
16,O=C(Nc1cc([As](=O)(O)O)ccc1O)c1ccccc1,inactive: -3.96%
17,O=[N+]([O-])c1ncn(CCn2ncnc2[N+](=O)[O-])n1,inactive: 2.76%
18,CC(C)(C)C(=O)NC(Sc1ccncn1)C(Cl)(Cl)Cl (centres undefined),inactive: 1.76%
19,O=C(O)CNc1ccc([As](=O)(O)O)cc1,inactive: 9.93%
20,COC(=O)C1(C)COP(=O)(Nc2ccccc2)OC1 (centres undefined),inactive: -3.9%
21,O=[N+]([O-])c1cccc(NC2=NCC(CBr)S2)c1 (centres undefined),inactive: 3.83%
22,O=P(Nc1nc2ccc(Cl)cc2s1)(c1ccccc1)c1ccccc1,inactive: 3.22%

row,Structure (SMILES),inhibition
1,CC(=O)Nc1ccc([As](=O)(O)O)cc1,inactive: -1.26%
2,O=C(O)c1ccccc1[As](=O)(O)O,inactive: 8.6%
3,CCCC1OP(N)(=O)OCC1CC (centres undefined),inactive: 7.67%
4,Cc1cc(SC(NC(=O)c2ccc(F)cc2)C(Cl)(Cl)Cl)ncn1 (centres undefined),inactive: 7.1%
5,CCOP(=O)(Nc1ccccc1)OCC,inactive: 2.81%
6,Cc1ccc(NP(=O)(Oc2ccccc2F)Oc2ccccc2F)nc1,inactive: -6.71%
7,CN(C(=O)Cc1ccc(Cl)c(Cl)c1)[C@H]1CCCC[C@@H]1N1CCCC1,inactive: -0.98%
8,Nc1cccc2ccc([As](=O)(O)O)cc12,inactive: 17.2%
9,CCN(N=Nc1nonc1N)c1nonc1N,inactive: -1.53%
10,CN(C(=O)Cc1ccc(Cl)c(Cl)c1)[C@H]1CCCC[C@H]1N1CCCC1,inactive: -1.13%
11,Cc1ccc(N/C(=N/P(=O)(N2CCOCC2)N2CCOCC2)N2CCOCC2)cc1,inactive: 6.2%
12,NC(=O)c1cc([N+](=O)[O-])cc([N+](=O)[O-])c1N,inactive: -10.6%
13,CN1CCCC(OC(=O)C(c2ccccc2)c2ccccc2)C1 (centres undefined),inactive: 5.7%
14,Clc1ccc(Cl)c(NC2=NCC(CBr)S2)c1 (centres undefined),inactive: 2.47%
15,COc1ccccc1OP(=O)(Nc1ccc(C)cn1)Oc1ccccc1OC,inactive: -7.71%
16,Cc1ccc(OP(=O)(Nc2nccs2)Oc2ccc(C)cc2)cc1,inactive: -0.12%
17,Oc1ccccc1CNc1ccccn1,inactive: 1.9%
18,O=C(NC(Sc1ccncn1)C(Cl)(Cl)Cl)c1ccccc1 (centres undefined),inactive: -11%
19,Nc1cc(N)c2nonc2c1[N+](=O)[O-],inactive: 3.73%
20,CC(C)CC(=O)NC(Sc1ccc(Cl)cc1)C(Cl)(Cl)Cl (centres undefined),inactive: -1.38%
